Chains of the proteins cited; added tags and fusions are not shown.
UniProt Q9UBT2, whole entry: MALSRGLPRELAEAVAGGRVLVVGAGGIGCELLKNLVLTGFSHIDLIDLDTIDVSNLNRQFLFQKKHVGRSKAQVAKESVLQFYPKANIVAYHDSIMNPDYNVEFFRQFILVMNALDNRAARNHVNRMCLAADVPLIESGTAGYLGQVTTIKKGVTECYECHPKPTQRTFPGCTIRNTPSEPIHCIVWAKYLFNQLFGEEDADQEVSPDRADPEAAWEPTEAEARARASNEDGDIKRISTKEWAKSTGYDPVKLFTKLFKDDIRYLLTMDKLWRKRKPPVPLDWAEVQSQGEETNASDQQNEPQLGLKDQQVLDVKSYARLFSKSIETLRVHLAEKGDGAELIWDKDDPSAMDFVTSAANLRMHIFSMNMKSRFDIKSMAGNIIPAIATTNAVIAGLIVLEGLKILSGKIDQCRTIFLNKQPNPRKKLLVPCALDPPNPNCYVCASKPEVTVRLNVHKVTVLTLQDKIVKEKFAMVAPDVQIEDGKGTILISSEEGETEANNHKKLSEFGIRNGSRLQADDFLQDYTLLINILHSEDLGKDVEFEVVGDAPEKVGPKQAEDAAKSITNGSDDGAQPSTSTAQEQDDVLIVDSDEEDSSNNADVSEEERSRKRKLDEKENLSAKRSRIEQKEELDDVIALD
UniProt Q9UBE0, whole entry partner: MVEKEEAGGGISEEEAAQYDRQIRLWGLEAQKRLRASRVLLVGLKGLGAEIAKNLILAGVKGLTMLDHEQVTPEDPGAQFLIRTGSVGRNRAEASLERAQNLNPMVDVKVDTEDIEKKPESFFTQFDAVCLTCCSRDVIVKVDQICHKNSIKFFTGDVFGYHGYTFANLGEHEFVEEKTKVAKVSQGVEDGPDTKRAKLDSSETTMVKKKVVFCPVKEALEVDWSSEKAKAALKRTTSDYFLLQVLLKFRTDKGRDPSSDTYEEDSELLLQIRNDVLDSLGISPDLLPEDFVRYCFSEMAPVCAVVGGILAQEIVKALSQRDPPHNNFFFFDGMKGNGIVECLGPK

According to patent publication US10780090B2, “Heteroaryl compounds useful as inhibitors of SUMO activating enzyme” (Millennium Pharmaceuticals, Inc., priority 2014, dated 2020):

Target: recombinant human SAE enzyme (Homo sapiens (Human), UniProt Q9UBT2)
Assay: SAE HTRF enzyme assay
Assay type: biochemical
Details: for Percent Inhibition: Concentration 0.111 μM; for IC50: class symbols A/B/C

| Structure (SMILES) | Percent Inhibition [%] | IC50 [nM] |
| --- | --- | --- |
| C#Cc1ccc2c(c1)C(c1cc(C(=O)c3cncnc3N[C@@H]3C[C@H](COS(N)(=O)=O)[C@@H](O)C3)sc1C)OCC2 (single isomer, unassigned) | 98 | < 10 |
| CC(N)(c1cccc(Cl)c1)c1csc(C(=O)c2cncnc2N[C@@H]2C[C@H](COS(N)(=O)=O)[C@@H](O)[C@H]2O)c1 (single isomer, unassigned) | 99 | < 10 |
| NS(=O)(=O)OC[C@H]1C[C@@H](Nc2ncncc2C(=O)c2cc(C(O)c3cccc(Cl)c3)c(Cl)s2)C[C@@H]1O (single isomer, unassigned) | 99 | < 10 |
